Molecular target: T1, Galanin receptor type 3 (Homo sapiens, UniProt O60755)
T1 sequence (O60755 whole entry): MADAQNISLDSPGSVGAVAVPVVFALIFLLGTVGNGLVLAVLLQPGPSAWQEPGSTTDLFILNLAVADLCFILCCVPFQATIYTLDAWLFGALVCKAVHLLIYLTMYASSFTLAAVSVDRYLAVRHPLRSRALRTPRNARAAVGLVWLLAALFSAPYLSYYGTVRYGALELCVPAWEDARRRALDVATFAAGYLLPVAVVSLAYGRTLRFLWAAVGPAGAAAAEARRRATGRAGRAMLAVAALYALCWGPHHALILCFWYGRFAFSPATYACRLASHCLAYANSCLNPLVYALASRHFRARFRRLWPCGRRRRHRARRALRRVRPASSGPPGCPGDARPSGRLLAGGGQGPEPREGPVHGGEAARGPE
Test: Binding affinity to human GalR3

CC[C@H](C)[C@H](NC(=O)[C@H](C)NC(=O)[C@H](Cc1cnc[nH]1)NC(=O)[C@@H]1CCCN1C(=O)CNC(=O)[C@H](CC(C)C)NC(=O)[C@H](CC(C)C)NC(=O)[C@H](Cc1ccc(O)cc1)NC(=O)CNC(=O)[C@H](C)NC(=O)[C@H](CO)NC(=O)[C@H](CC(N)=O)NC(=O)[C@H](CC(C)C)NC(=O)[C@@H](NC(=O)[C@H](Cc1c[nH]c2ccccc12)NC(=O)CN)[C@@H](C)O)C(=O)O
Kd: 315 nM
